This is an account of results in ChEMBL document CHEMBL5154915 (J Med Chem, 2022).

The species named for the assay is Cavia porcellus. The experiment in a line: Activation of SERCA2a activity in guinea pig heart sarcoplasmic reticulum microsomal fraction assessed as increase in SERCA2a-Ca2+ affinity by measuring Kd of calcium at 100 nM preincubated for 5 mins followed by addition of 32-P-ATP measured after 15 mins relative to control. The format is subcellular. The settings on record: time 20.0 min. The procedure, abridged:
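Cardiac SR microsomes were prepared from healthy guinea pig hearts and contain SERCA2a plus PLN. Compounds were tested at 10 and 100 nM. ATPase was measured as 32P-ATP release at 37 °C, taking the cyclopiazonic acid (10 μM)-sensitive part, across Ca2+ 100–1500 nM. KdCa and Vmax were derived by curve fitting. N = 4–11; one-way RM ANOVA with Tukey or paired t-test.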

Take `C[C@]12CC[C@H](CCCC(=O)O)C[C@@H]1[C@@H](O)C[C@@H]1[C@@H]2CC[C@]2(C)C(=O)CC[C@@H]12`: the Activity was -26%.
With `C[C@]12CC[C@H](CCCC(=O)O)C[C@@H]1[C@H](O)C[C@@H]1[C@@H]2CC[C@]2(C)C(=O)CC[C@@H]12` the figure was -26%.
